From patent US12521389B2, “Therapeutic approach to lung disease” (The Regents of the University of California, priority 2019, dated 2026)

Test system: wild-type mouse lung
Assay: Lung wet-to-dry ratio after intranasal CGRP administration in wild type mice
Type: in vivo
Details: wild type pups; intranasal 10 ul 1 ng/ul at P10, P12, P14, P16; measured at P18; vs saline
Text: Next, molecules that mediate the impact of PNEC hyperplasia on NEHI symptoms were investigated using the NEHI mouse model. As PNECs are known for their production of highly bioactive neuropeptides, neurotransmitters and amines, it is reasoned that PNEC products could be potential mediators. It has been reported that CGRP is a key neuropeptide secreted by PNECs, can act as a vasodilator and can induce edema when injected in the paw.
Each lung was removed from sacrificed mouse right after euthanasia. Excessive blood was removed by kimwipe and wet weight mw was measured right after dissection. The lung was then placed on the foil at 70° C. for 24 hours. Dry weight […] was then measured by reweighing the dried lung. Wet-to-dry ratio was calculated as: W/D ratio=mw/md.
BIBN-4096 (Fisher Scientific #45-611-0) was dissolved in 100% DMSO (Sigma-Aldrich D2650) and further diluted to working solution with saline before use. 10 ul of 0.3 mg/ml BIBN-4096 was intranasally administrated to pups at P10, P12, P14, P16 and P18. CGRP (Sigma-Aldrich C0292) was dissolved and diluted with saline to reach the working concentration. 10 ul 1 ng/ul CGRP was intranasally administrated to pups at P10, P12, P14 and P16.

CGRP: calcitonin gene-related peptide, neuropeptide secreted by PNECs (Sigma-Aldrich C0292) (ACDTATCVTHRLAGLLSRSGGVVKNNFVPTNVGSKAF; Calcitonin gene-related peptide 1; UniProt P06881 83-119, looked up)
Lung wet-to-dry ratio (pulmonary edema): increase of fluid in the lung; also recorded: significant increase

Entries after “also recorded” stand apart in the source; their conditions may differ.
